{"source": "paper PMC8941131", "parents": {"B1": {"name": "Flag-PDK1 (3-phosphoinositide-dependent protein kinase 1, wild type) [not stated] / HA-AKT1 [not stated] (parent)", "chain 1": "MARTTSQLYDAVPIQSSVVLCSCPSPSMVRTQTESSTPPGIPGGSRQGPAMDGTAAEPRPGAGSLQHAQPPPQPRKKRPEDFKFGKILGEGSFSTVVLARELATSREYAIKILEKRHIIKENKVPYVTRERDVMSRLDHPFFVKLYFTFQDDEKLYFGLSYAKNGELLKYIRKIGSFDETCTRFYTAEIVSALEYLHGKGIIHRDLKPENILLNEDMHIQITDFGTAKVLSPESKQARANSFVGTAQYVSPELLTEKSACKSSDLWALGCIIYQLVAGLPPFRAGNEYLIFQKIIKLEYDFPEKFFPKARDLVEKLLVLDATKRLGCEEMEGYGPLKAHPFFESVTWENLHQQTPPKLTAYLPAMSEDDEDCYGNYDNLLSQFGCMQVSSSSSSHSLSASDTGLPQRSGSNIEQYIHDLDSNSFELDLQFSEDEKRLLLEKQAGGNPWHQFVENNLILKMGPVDKRKGLFARRRQLLLTEGPHLYYVDPVNKVLKGEIPWSQELRPEAKNFKTFFVHTPNRTYYLMDPSGNAHKWCRKIQEVWRQRYQSHPDAAVQ", "chain 2": "MSDVAIVKEGWLHKRGEYIKTWRPRYFLLKNDGTFIGYKERPQDVDQREAPLNNFSVAQCQLMKTERPRPNTFIIRCLQWTTVIERTFHVETPEEREEWTTAIQTVADGLKKQEEEEMDFRSGSPSDNSGAEEMEVSLAKPKHRVTMNEFEYLKLLGKGTFGKVILVKEKATGRYYAMKILKKEVIVAKDEVAHTLTENRVLQNSRHPFLTALKYSFQTHDRLCFVMEYANGGELFFHLSRERVFSEDRARFYGAEIVSALDYLHSEKNVVYRDLKLENLMLDKDGHIKITDFGLCKEGIKDGATMKTFCGTPEYLAPEVLEDNDYGRAVDWWGLGVVMYEMMCGRLPFYNQDHEKLFELILMEEIRFPRTLGPEAKSLLSGLLKKDPKQRLGGGSEDAKEIMQHRFFAGIVWQHVYEKKLSPPFKPQVTSETDTRYFDEEFTAQMITITPPDQDDSMECVDSERRPHFPQFSYSASGTA"}}, "data": [{"variants_of": "B1", "assay": "co-immunoprecipitation (IP: Flag), immunoblot band quantification", "details": "with HA-AKT1; 293T cells transfected with HA-AKT1 and Flag-PDK1; n = 3; parent: 1; read off a plot", "values": [{"variant": "chain 1 MARTTSQLYDAVPIQSSVVLCSCPSPSMVRTQTESSTPPGIPGGSRQGPAMDGTAAEPRPGAGSLQHAQPPPQPRKKRPEDFKFGKILGEGSFSTVVLARELATSREYAIKILEKRHIIKENKVPYVTRERDVMSRLDHPFFVKLYFTFQDDEKLYFGLSYAKNGELLKYIRKIGSFDETCTRFYTAEIVSALEYLHGKGIIHRDLKPENILLNEDMHIQITDFGTAKVLSPESKQARANSFVGTAQYVSPELLTEKSACKSSDLWALGCIIYQLVAGLPPFRAGNEYLIFQKIIKLEYDFPEKFFPKARDLVEKLLVLDATKRLGCEEMEGYGPLKAHPFFESVTWENLHQQTPPKLTAYLPAMSEDDEDCYGNYDNLLSQFGCMQVSSSSSSHSLSASDTGLPQRSGSNIEQYIHDLDSNSFELDLQFSEDEKRLLLEKQAGGNPWHQFVENNLILKMGPVDKRKGLFARRRQLLLTEGPHLYYVDPVNKVLKGEIPWSQELRPEAKNFKTFFVHTPNRTYYLMDPSGNAHKWCRKIQEVWRQRYQSHADAAVQ", "note": "[chain 1 P551A]", "response": 1.6}, {"variant": "chain 1 MARTTSQLYDAVPIQSSVVLCSCPSPSMVRTQTESSTPPGIPGGSRQGPAMDGTAAEPRPGAGSLQHAQPPPQPRKKRPEDFKFGKILGEGSFSTVVLARELATSREYAIKILEKRHIIKENKVPYVTRERDVMSRLDHPFFVKLYFTFQDDEKLYFGLSYAKNGELLKYIRKIGSFDETCTRFYTAEIVSALEYLHGKGIIHRDLKPENILLNEDMHIQITDFGTAKVLSPESKQARANSFVGTAQYVSPELLTEKSACKSSDLWALGCIIYQLVAGLPPFRAGNEYLIFQKIIKLEYDFPEKFFPKARDLVEKLLVLDATKRLGCEEMEGYGPLKAHPFFESVTWENLHQQTPPKLTAYLPAMSEDDEDCYGNYDNLLSQFGCMQVSSSSSSHSLSASDTGLPQRSGSNIEQYIHDLDSNSFELDLQFSEDEKRLLLEKQAGGNPWHQFVENNLILKMGPVDKRKGLFARRRQLLLTEGPHLYYVDPVNKVLKGEIPWSQELRPEAKNFKTFFVHTPNRTYYLMDPSGNAHKWCRKIQEVWRQRYQSHLDAAVQ", "note": "[chain 1 P551L]", "response": 3.2}, {"variant": "chain 1 MARTTSQLYDAVPIQSSVVLCSCPSPSMVRTQTESSTPPGIPGGSRQGPAMDGTAAEPRPGAGSLQHAQPPPQPRKKRPEDFKFGKILGEGSFSTVVLARELATSREYAIKILEKRHIIKENKVPYVTRERDVMSRLDHPFFVKLYFTFQDDEKLYFGLSYAKNGELLKYIRKIGSFDETCTRFYTAEIVSALEYLHGKGIIHRDLKPENILLNEDMHIQITDFGTAKVLSPESKQARANSFVGTAQYVSPELLTEKSACKSSDLWALGCIIYQLVAGLPPFRAGNEYLIFQKIIKLEYDFPEKFFPKARDLVEKLLVLDATKRLGCEEMEGYGPLKAHPFFESVTWENLHQQTPPKLTAYLPAMSEDDEDCYGNYDNLLSQFGCMQVSSSSSSHSLSASDTGLPQRSGSNIEQYIHDLDSNSFELDLQFSEDEKRLLLEKQAGGNPWHQFVENNLILKMGPVDKRKGLFARRRQLLLTEGPHLYYVDPVNKVLKGEIPWSQELRPEAKNFKTFFVHTPNRTYYLMDPSGNAHKWCRKIQEVWKQRYQSHPDAAVQ", "note": "[chain 1 R544K]", "response": 1.8}, {"variant": "chain 1 MARTTSQLYDAVPIQSSVVLCSCPSPSMVRTQTESSTPPGIPGGSRQGPAMDGTAAEPRPGAGSLQHAQPPPQPRKKRPEDFKFGKILGEGSFSTVVLARELATSREYAIKILEKRHIIKENKVPYVTRERDVMSRLDHPFFVKLYFTFQDDEKLYFGLSYAKNGELLKYIRKIGSFDETCTRFYTAEIVSALEYLHGKGIIHRDLKPENILLNEDMHIQITDFGTAKVLSPESKQARANSFVGTAQYVSPELLTEKSACKSSDLWALGCIIYQLVAGLPPFRAGNEYLIFQKIIKLEYDFPEKFFPKARDLVEKLLVLDATKRLGCEEMEGYGPLKAHPFFESVTWENLHQQTPPKLTAYLPAMSEDDEDCYGNYDNLLSQFGCMQVSSSSSSHSLSASDTGLPQRSGSNIEQYIHDLDSNSFELDLQFSEDEKRLLLEKQAGGNPWHQFVENNLILKMGPVDKRKGLFARRRQLLLTEGPHLYYVDPVNKVLKGEIPWSQELRPEAKNFKTFFVHTPNRTYYLMDPSGNAHKWCRKIQEVWRQPYQSHPDAAVQ", "note": "[chain 1 R546P]", "response": 2.2}, {"variant": "chain 1 MARTTSQLYDAVPIQSSVVLCSCPSPSMVRTQTESSTPPGIPGGSRQGPAMDGTAAEPRPGAGSLQHAQPPPQPRKKRPEDFKFGKILGEGSFSTVVLARELATSREYAIKILEKRHIIKENKVPYVTRERDVMSRLDHPFFVKLYFTFQDDEKLYFGLSYAKNGELLKYIRKIGSFDETCTRFYTAEIVSALEYLHGKGIIHRDLKPENILLNEDMHIQITDFGTAKVLSPESKQARANSFVGTAQYVSPELLTEKSACKSSDLWALGCIIYQLVAGLPPFRAGNEYLIFQKIIKLEYDFPEKFFPKARDLVEKLLVLDATKRLGCEEMEGYGPLKAHPFFESVTWENLHQQTPPKLTAYLPAMSEDDEDCYGNYDNLLSQFGCMQVSSSSSSHSLSASDTGLPQRSGSNIEQYIHDLDSNSFELDLQFSEDEKRLLLEKQAGGNPWHQFVENNLILKMGPVDKRKGLFARRRQLLLTEGPHLYYVDPVNKVLKGEIPWSQELRPEAKNFKTFFVHTPNRTYYLMDPSGNAHKWCRKIQEVWRQRYQNHPDAAVQ", "note": "[chain 1 S549N]", "response": 3.3}]}]}
